Assay results as given in PMC10252707, “Zn^2+ and Cu^2+ Interaction with the Recognition Interface of ACE2 for SARS-CoV-2 Spike Protein” (2023).

Experiments:
[1] = target: Lys31 (UniProt position 31, …); assay: potentiometry; settings: 0.1 M NaClO4
[2] = target: His34 (UniProt position 34, …); assay: potentiometry; settings: 0.1 M NaClO4
[3] = 298 K, none (4 mM HClO4 / NaClO4 medium, argon atmosphere), free peptide (no metal), 0.5 mM
[4] = 298.2 K, none (HClO4 / NaClO4 medium, argon atmosphere), Cu(II)-bound peptide, metal:ligand 1:1.1, ligand 0.5 mM

B1: P29-38, peptide fragment 29-38 of angiotensin-converting enzyme 2 (ACE2) (Homo sapiens) (peptide)
chain: LDKFNHEAED
B1 gave a pKa [1, 3] of 10.21, a pKa [1, 4] of 11.20 and a pKa [2, 3] of 6.84. For the same protein, the pKa [2, 4] was 4.77 and the pKa ([2]; 298.2 K, none (HClO4 / NaClO4 medium, argon atmosphere), Zn(II)-bound peptide, metal:ligand 1:1.1, ligand 0.5 mM) was 5.79.
